Amino acid sequences for entries named in this document (tags omitted). A change or cut given only in a name is not applied to a line headed by its entry.
UniProt P12657: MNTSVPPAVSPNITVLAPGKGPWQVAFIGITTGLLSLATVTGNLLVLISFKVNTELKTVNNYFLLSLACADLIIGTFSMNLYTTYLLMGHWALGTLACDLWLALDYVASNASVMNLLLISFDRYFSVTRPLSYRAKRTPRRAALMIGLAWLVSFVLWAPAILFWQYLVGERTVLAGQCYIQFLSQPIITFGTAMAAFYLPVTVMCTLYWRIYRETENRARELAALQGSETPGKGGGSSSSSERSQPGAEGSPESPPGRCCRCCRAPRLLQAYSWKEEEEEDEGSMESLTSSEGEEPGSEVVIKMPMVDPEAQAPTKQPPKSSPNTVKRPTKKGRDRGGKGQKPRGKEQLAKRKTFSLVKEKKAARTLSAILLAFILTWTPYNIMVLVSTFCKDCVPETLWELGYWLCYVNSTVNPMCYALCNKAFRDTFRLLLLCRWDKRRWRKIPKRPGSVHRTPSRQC

In publication PMC4677984, “Activation of Muscarinic M1 Acetylcholine Receptors Induces Long-Term Potentiation in the Hippocampus” (Cerebral Cortex (New York, NY), 2015):

Biological target: mouse native M1Rs (Mus musculus, UniProt P12657)
Conditions: read-out: EC50 for Gαq activation; WT hippocampus membranes
Description: All procedures were performed at 4°C. […] Homogenate was centrifuged at 1000×g for 10 min and supernatant collected, the pellet was rehomogenized and centrifuged again, as above, and supernatant pooled and centrifuged at 11 000×g for 20 min. The resulting pellet was suspended in a final storage buffer (10 mM HEPES, 1 mM EGTA, 1 mM MgCl2, 1 mM DTT; pH 7.4) and centrifuged at 27 000×g for 20 min. Supernatant was removed and the final pellet suspended in 2 mL of final storage buffer. Protein concentration was measured using the Bradford method ([Bradford 1976]) (Coomassie Plus, Bio-Rad protein assay kit) with bovine gamma globulin standards. Samples were then aliquoted and stored at −80°C.
GTPɣ[^35S] binding in mouse WT and M1 KO hippocampal membranes were determined in triplicate using an antibody capture technique in 96-well plate format ([DeLapp et al. 1999]). Membrane aliquots (15 µg/well) from WT or M1 KO C57BL6/NTac mice were incubated with test compound and GTPɣ[^35S] (500 pM/well) for 30 min. […] Plates were left to incubate for 3 h and then centrifuged for 10 min at 2000 rpm. Plates were counted for 1 min/well using a Wallac MicroBeta Trilux scintillation counter (PerkinElmer). […]
For data analysis, relative EC50 and IC50 values were calculated using a 4-parameter logistic curve (GraphPad Prism v6).

Substance: oxotremorine M
- EC50: 0.171 µM
